Assay results from PubChem BioAssay AID797 (University of Pittsburgh Molecular Library Screening Center, 2007).
The list shows a part of the results, in another mix than the full data. Active and inactive are the calls of the source. Rule as the data show it: active = inhibition above about 50%; inactive = the rest.

The chains behind the UniProt entries cited, without tags or fusion partners.
UniProt Q15139, whole entry: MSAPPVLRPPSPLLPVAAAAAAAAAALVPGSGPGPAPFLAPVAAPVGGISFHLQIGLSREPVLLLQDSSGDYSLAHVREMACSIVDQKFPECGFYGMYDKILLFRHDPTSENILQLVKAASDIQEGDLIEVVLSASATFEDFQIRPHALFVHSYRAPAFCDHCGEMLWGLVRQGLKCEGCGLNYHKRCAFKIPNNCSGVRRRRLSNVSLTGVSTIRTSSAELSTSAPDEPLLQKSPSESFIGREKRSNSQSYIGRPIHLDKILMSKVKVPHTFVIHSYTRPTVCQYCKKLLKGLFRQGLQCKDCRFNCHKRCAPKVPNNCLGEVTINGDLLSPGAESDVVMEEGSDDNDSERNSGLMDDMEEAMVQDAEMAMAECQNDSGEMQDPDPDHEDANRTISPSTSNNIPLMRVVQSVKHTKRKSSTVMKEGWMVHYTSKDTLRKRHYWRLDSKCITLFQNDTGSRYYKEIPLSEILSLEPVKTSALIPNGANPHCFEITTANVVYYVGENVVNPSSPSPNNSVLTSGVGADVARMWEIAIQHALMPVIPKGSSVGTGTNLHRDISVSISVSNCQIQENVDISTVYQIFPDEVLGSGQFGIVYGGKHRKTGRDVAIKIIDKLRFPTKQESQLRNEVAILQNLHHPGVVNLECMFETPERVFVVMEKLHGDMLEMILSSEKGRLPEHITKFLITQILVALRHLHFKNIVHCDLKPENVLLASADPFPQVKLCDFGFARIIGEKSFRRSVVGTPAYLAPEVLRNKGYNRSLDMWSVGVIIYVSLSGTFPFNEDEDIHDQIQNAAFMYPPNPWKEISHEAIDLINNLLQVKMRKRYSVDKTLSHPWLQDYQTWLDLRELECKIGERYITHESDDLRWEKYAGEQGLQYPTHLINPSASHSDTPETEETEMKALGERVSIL

Target: Serine/threonine-protein kinase D1 (Homo sapiens) (UniProt Q15139)
Assay: inhibitors of human PKD1 kinase, biochemical, fluorescence polarization (AID 797)
Conditions: PKD1 kinase fluorescence polarization assay; stronger effect = higher value; concentration not given here

Compound	inhibition
COc1ccc(C(=O)NCC2(N3CCOCC3)CCCCC2)cc1OC	inactive: 4.68%
N/C(=N\O)c1c(N)no[n+]1[O-]	inactive: -14.7%
O=C(OC1CN2CCC1CC2)C1c2ccccc2C=Cc2ccccc21 (stereo not given)	inactive: -13.8%
N#Cc1ccc(C(=O)NCC2(N3CCCCC3)CCCCC2)cc1	inactive: -7.25%
c1ccc(CN2CCC(Nc3ccccc3)CC2)cc1	inactive: -2.46%
CCN1CCC(Nc2cccc(F)c2)CC1	inactive: -10.3%
CN(C)c1ccc(C(=O)NCC2(N3CCCCC3)CCCCC2)cc1	inactive: -10.3%
CCOc1ncccc1C(=O)NCC1(N2CCOCC2)CCCCC1	inactive: -10.3%
CC(C)(C)OC(=O)N1CCC(Nc2ccccc2)CC1	inactive: -3.31%
COc1cc(OC)cc(C(=O)NCC2(N3CCOCC3)CCCCC2)c1	inactive: -8.36%
CCC(CO)(C(=O)OC1CN2CCC1CC2)c1ccccc1 (stereo not given)	inactive: -7.01%
COc1ccc(C(=O)NCC2(N3CCCCC3)CCCCC2)c(OC)c1OC	inactive: 0.31%
O=C(NCC1(N2CCOCC2)CCCCC1)c1cc2ccccc2o1	inactive: -6.27%
O=C(OC1CN2CCC1CC2)C1c2ccccc2Oc2ccccc21 (stereo not given)	inactive: -1.06%
CCOC(=O)N1CCC(Nc2ccc(OC)cc2)CC1	inactive: -0.54%
COc1ccc(NC2CCN(CCc3ccccc3)CC2)c(OC)c1	inactive: 1.48%
N#CC1(Nc2ccccc2)CCN(CCc2ccccc2)CC1	inactive: 9.42%
O=C(NCC1(N2CCCCC2)CCCCC1)c1cccc([N+](=O)[O-])c1	inactive: -1.56%
O=C(NCC1(N2CCOCC2)CCCCC1)c1cc(=O)[nH]c2ccccc12	inactive: -7.75%
COc1ccc(NC2CCN(C(=O)OC(C)(C)C)CC2)cc1	inactive: -6.58%
CN1CCN(CCOC(=O)C(O)(c2ccccc2)c2ccccc2)CC1	inactive: -9.08%
CC(C)c1ccc(NC2CCN(C(=O)OC(C)(C)C)CC2)cc1	inactive: -4.04%
CN(C)c1cccc(C(=O)NCC2(N3CCCCC3)CCCCC2)c1	inactive: 0.26%
COc1ccc(CN(CCCl)CCCl)cc1Cl	inactive: -3.12%
CN1CCC(Nc2cccc(F)c2)CC1	inactive: 5.38%
